Tested on: streptozotocin-induced diabetic model
Experiment: Test Example 3: sucrose loading in streptozotocin-induced diabetic model, plasma glucose (GLU)
Format: in vivo, rat
Settings: STZ rats; sucrose loading 2.5 g/kg; metformin 50 mg/kg, voglibose 0.2 mg/kg, fenofibrate 50 mg/kg
Experimental: Effect of combination use of fenofibrate and voglibose on a streptozotocin-induced diabetic model Streptozotocin (STZ) was dissolved in physiological saline, and the solution was intravenously administered to male Wister rats at a dose of 45 mg/kg in terms of STZ (STZ-administered day: Day 0). At 13 days after administration (Day 13), blood was collected from the rats, and plasma glucose (GLU) concentration was measured. […] From Day 14 (14 days after STZ administration), test articles shown in Table 1 were orally administered to the rats once a day for 9 days. At 23 days after STZ administration (Day 23), the GLU concentration was measured (previous value: GLU concentration before sucrose loading) (incidentally, the test articles were not administered on Day 23). […] Incidentally, each of the test articles was administered in the following dose a time: metformin (50 mg/kg), voglibose (0.2 mg/kg), and fenofibrate (50 mg/kg). Moreover, “N” represents the number of rats for determining the GLU concentration in the Table.

In the case of `CC(C)OC(=O)C(C)(C)Oc1ccc(C(=O)c2ccc(Cl)cc2)cc1` [Fenofibrate], the “Rate of Change (GLU concentration after loading relative to before loading)” value is reported as 112.2%.
